Target: T1, PI3K delta (Homo sapiens, UniProt O00329)
T1 construct: purchased Upstate
Test: PI3K delta inhibition assay
Type: biochemical
Conditions: binned

Sequences of proteins named here, by UniProt entry; tags and fusion partners are left off. A change or cut given only in a name is not applied to a line headed by its entry.
UniProt O00329: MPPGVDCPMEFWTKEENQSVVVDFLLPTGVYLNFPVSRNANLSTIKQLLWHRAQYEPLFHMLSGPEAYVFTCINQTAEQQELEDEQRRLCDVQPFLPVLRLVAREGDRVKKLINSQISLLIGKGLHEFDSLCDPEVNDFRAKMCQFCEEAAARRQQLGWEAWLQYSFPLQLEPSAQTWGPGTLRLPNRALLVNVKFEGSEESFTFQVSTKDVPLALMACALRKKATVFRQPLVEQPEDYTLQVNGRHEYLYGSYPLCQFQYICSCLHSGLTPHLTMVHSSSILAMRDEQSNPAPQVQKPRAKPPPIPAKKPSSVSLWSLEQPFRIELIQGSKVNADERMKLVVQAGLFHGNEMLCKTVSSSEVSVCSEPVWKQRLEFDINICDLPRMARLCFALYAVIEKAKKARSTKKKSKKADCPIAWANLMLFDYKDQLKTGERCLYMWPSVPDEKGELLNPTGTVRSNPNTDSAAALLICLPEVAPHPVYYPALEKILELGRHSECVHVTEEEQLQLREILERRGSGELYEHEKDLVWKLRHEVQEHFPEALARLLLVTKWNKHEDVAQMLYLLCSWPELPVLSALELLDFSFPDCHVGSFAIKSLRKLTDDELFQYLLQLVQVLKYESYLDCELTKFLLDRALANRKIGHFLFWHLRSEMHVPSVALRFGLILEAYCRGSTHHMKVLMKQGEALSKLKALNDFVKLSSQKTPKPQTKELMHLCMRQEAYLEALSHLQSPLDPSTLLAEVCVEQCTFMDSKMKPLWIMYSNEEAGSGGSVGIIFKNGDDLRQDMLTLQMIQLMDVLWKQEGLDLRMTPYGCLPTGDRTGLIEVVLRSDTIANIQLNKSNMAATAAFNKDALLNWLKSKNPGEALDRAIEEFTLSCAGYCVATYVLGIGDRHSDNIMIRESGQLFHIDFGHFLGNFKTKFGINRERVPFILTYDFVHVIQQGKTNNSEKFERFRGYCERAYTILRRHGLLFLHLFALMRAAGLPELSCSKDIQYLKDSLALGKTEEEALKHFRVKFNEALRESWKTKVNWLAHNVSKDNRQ
UniProt P42336, whole entry: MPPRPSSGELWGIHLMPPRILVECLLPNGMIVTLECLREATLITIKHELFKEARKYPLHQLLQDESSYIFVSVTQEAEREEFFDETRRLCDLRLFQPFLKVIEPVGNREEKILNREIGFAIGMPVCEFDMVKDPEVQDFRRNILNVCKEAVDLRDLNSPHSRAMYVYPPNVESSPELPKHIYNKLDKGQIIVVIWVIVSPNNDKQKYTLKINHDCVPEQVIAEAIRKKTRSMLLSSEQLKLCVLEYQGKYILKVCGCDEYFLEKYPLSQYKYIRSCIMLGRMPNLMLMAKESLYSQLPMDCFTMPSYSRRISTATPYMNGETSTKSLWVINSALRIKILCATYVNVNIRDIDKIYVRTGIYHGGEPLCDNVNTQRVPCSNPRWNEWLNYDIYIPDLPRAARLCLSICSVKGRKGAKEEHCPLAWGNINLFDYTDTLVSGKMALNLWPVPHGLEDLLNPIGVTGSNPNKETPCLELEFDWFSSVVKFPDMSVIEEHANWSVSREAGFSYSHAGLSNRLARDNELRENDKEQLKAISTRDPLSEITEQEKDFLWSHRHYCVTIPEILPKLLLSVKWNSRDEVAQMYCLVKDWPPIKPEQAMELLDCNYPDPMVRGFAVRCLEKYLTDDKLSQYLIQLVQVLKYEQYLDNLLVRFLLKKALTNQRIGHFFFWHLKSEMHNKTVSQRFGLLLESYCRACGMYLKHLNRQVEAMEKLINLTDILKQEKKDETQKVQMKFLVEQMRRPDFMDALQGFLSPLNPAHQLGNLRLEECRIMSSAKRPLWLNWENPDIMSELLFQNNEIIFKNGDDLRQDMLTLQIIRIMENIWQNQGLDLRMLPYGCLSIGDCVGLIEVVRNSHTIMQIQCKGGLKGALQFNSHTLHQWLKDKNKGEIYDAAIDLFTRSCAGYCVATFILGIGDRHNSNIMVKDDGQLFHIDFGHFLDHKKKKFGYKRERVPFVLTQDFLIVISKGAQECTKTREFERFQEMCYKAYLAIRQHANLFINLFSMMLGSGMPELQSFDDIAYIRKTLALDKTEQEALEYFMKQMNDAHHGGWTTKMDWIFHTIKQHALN
UniProt P42338: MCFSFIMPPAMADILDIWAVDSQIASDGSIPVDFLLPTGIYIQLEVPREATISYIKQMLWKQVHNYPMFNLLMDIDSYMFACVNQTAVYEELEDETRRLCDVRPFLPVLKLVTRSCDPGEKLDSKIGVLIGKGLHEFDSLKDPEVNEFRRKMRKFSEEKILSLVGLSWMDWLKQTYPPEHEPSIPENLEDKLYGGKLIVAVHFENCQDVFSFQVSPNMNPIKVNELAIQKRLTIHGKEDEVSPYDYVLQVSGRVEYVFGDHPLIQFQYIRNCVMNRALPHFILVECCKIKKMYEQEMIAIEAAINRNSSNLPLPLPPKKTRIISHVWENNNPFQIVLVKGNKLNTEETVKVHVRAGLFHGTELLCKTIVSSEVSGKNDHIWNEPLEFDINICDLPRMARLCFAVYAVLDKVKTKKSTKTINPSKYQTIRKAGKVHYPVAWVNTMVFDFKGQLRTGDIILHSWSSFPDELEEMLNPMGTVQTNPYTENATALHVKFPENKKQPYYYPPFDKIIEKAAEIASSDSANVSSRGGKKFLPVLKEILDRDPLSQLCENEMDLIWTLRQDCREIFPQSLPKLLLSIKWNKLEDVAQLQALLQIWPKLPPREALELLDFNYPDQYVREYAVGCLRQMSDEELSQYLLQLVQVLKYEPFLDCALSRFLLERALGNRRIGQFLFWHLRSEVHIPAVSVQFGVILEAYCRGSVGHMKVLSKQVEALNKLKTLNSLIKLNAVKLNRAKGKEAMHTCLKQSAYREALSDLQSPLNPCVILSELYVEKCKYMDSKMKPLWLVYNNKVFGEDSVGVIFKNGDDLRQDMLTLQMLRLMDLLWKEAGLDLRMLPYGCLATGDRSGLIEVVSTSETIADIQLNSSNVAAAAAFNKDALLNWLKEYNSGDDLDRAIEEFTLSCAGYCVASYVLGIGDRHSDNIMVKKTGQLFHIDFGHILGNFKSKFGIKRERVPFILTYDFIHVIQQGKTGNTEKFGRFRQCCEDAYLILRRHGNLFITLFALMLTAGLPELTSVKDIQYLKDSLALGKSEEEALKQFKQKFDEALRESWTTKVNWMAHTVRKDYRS

Structure (SMILES)	IC50 [nM]
CNC(=O)Cn1nc(-c2ccc3nc(NC(C)=O)sc3c2)c2c(N)ncnc21 [Compound 18]	> 1000

Target: T2, PI3K alpha (Homo sapiens, UniProt P42336)
T2 construct: purchased Upstate
Test: PI3K alpha inhibition assay
Type: biochemical
Conditions: binned

Structure (SMILES)	IC50 [nM]
CNC(=O)Cn1nc(-c2ccc3nc(NC(C)=O)sc3c2)c2c(N)ncnc21 [Compound 18]	> 1000
CC(C)C(=O)Nc1nc2ccc(-c3nn(C(C)C)c4ncnc(N)c34)cc2s1 [Compound 7]	> 1000
CC(C)n1nc(-c2ccc3ncsc3c2)c2c(N)ncnc21 [Compound 2]	> 1000
CC(=O)Nc1nc2cc(-c3nn(C(C)C)c4ncnc(N)c34)ccc2s1 [Compound 17]	> 1000

Target: T3, PI3K beta (Homo sapiens, UniProt P42338)
T3 construct: purchased Upstate
Test: PI3K beta inhibition assay
Type: biochemical
Conditions: binned

Structure (SMILES)	IC50 [nM]
CNC(=O)Nc1nc2ccc(-c3nn(C(C)C)c4ncnc(N)c34)cc2s1 [Compound 20]	≤ 500
CC(=O)Nc1nc2ccc(-c3nn(C4CCOCC4)c4ncnc(N)c34)cc2s1 [Compound 19]	> 1000
CC(=O)Nc1nc2ccc(-c3nn(C4CCC4)c4ncnc(N)c34)cc2s1 [Compound 10]	> 1000
CCNc1nc2ccc(-c3nn(C(C)C)c4ncnc(N)c34)cc2s1 [Compound 12]	> 1000

— US9637492B2, “Benzothiazole kinase inhibitors and methods of use” (Intellikine LLC, priority 2008, dated 2017)
